Results on 1 molecule are retold here after ChEMBL document CHEMBL1129144, “Stereoselective synthesis and biological activity of cis azetidinones as cholesterol absorption inhibitors” (1996).

The structures appear in SMILES notation.

For this assay, the system named is Cricetinae gen. sp. Nature of the assay: Compound was tested for cholesterol reduction in liver in the cholesterol-fed hamster model after oral administration. The format is functional.

In the case of `COc1ccc([C@@H]2[C@@H](CCCc3ccccc3)C(=O)N2c2ccc(OC)cc2)cc1`, the ED50 (commonly the dose at which the effect has come halfway, by size or by number of responders) was 2.2 mg/kg.
